## scFv variants of Ab-14 (light chain) against a SARS-CoV-2 spike peptide

From the AlphaSeq antibody data of Li et al. 2023 (doi:10.1038/s41467-023-39022-2), copy in the FLAb collection.

Antigen: PDVDLGDISGINAS, a 14-residue peptide of the SARS-CoV-2 spike HR2 region.

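Phage display of a naive human antibody library on the peptide gave the parent. The variants were designed computationally from a first round of random CDR variants and then made and measured. Their group label is 14L_En_Gibbs (En: ensemble of fine-tuned language models; Gibbs: Gibbs sampling). The scFvs were displayed on barcoded MATa yeast, the peptide on MATalpha yeast. Pairs that bind mate more often; barcode pairs of the diploids are counted by sequencing. Read counts were normalised to the haploid input and turned into Kd by a linear fit to BCL2-family pairs of known affinity, for each replicate. The assay was run in six technical replicates.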

Each scFv is VH, three GGGGS repeats, VL, as in the parent Ab-14, and differs from it in the CDRs of the light chain only.
VH: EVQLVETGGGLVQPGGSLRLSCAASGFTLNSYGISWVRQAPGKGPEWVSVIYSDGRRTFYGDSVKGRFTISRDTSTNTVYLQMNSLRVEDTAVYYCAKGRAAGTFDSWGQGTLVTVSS
VL: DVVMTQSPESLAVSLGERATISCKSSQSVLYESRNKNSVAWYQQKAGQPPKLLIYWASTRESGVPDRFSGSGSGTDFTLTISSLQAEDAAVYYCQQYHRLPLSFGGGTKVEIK

Each variant is given by its three light chain CDRs, as the data file delimits them; those of the parent are KSSQSVLYESRNKNSVA, WASTRES, QQYHRLPLS. Affinities are written as log10 Kd with Kd in nM; a lower number is a better binder. Replicates are averaged; those with no signal do not enter the mean. An entry "n.d." has no value in the source: the pair was not observed among the diploids in that replicate. This suggests poor binding but is not conclusive. Background: pairings of all light chain designs with three empty control strains gave a value in 4% of cases (median 2.64, 5th percentile 1.59). Values in that range, when seen in few replicates, are hard to tell from nonspecific mating. For each scFv, signals with the empty controls are counted beside the result, with their mean in brackets. In the paper, a design with two or fewer of six values counts as a poor binder. A sequence measured in both rounds can read differently, since the two assays cover different ranges. Of ten entries with the parent sequence, four were seen in most replicates (averages 0.34 to 2.37), three in one and three in none, so single entries are noisy.

CDR-L1	CDR-L2	CDR-L3	log10 Kd (nM) by replicate	mean log10 Kd (nM)	control signals
KVDLITNPGNLMHNSVA	AATVKWE	QQYSQLPLS	0.96 0.53 0.48 0.37 0.40 0.84	0.60	0/18
NMNVSEDQWPVSKNAIA	QDTLRNL	QQYASLPLS	1.69 2.09 n.d. 1.69 1.93 n.d.	1.85	0/18
KLGGEQQSSTYEMDNVA	DVNTTYE	QHYSRLPLT	n.d. n.d. n.d. 2.39 2.16 2.62	2.39	0/18
HSNGQLVMGERNKNHVA	STDVRAS	QQYSRLPFT	0.33 0.02 -0.11 -0.05 0.26 0.06	0.08	1/18 (2.47)
KIHCRELMHGGQINAIA	EAAKLVE	QQYALLPLA	1.75 0.86 1.54 1.48 1.62 1.59	1.47	1/18 (2.82)
RLRELNFYSGNARNNIA	DAHIHEV	QQYSWLPLF	1.40 1.30 1.13 1.40 1.18 1.57	1.33	1/18 (3.14)
MITAAMNAYNGSRSSVA	DKAISVN	QQYHRLPLS	n.d. 2.36 n.d. 2.28 3.22 2.20	2.52	1/18 (2.33)
RLTEHQYMRAYANHAVA	DASTRND	QQYHRLPLE	-0.18 -0.06 0.14 -0.20 -0.10 -0.02	-0.07	2/18 (3.25)
KFFGGIPEQERDDYSIA	KGTLREM	QQYQRLPLS	0.54 0.52 0.34 0.26 0.36 0.59	0.44	1/18 (3.63)
ALSDWEWAGEENINAVA	DRSALEW	QQYGRLPLS	1.61 1.53 1.46 1.57 1.64 1.95	1.63	3/18 (2.73)
TLHANIEYGGGMWSSIA	DNVQRAN	QQYQRLPLG	1.24 1.06 1.30 1.03 1.01 1.36	1.17	1/18 (1.94)
NMTGTKEMQSNNINNIA	ENNERFQ	QQYFQLPLS	1.12 1.03 0.94 1.08 1.06 1.27	1.09	4/18 (3.21)
NISYHQGEPTNSVNNVA	QTSLRAH	QQYQHLPLC	0.78 0.55 0.78 0.64 0.62 0.74	0.69	2/18 (3.32)
NITQQGFASGDQRNNVA	NVETLQH	QQYAHLPLL	0.32 0.58 0.41 0.51 0.24 0.41	0.41	0/18
TFNLEYQGHNEDHNNIA	ETENKTD	QQYARLPLI	2.19 n.d. n.d. 3.80 2.61 n.d.	2.87	0/18
HISSMDMHDGGIMHSVA	DTKITER	QQYMRLPLS	0.55 0.55 0.48 0.58 0.72 0.64	0.58	1/18 (2.91)
NLMSHQSEIDVWKYSIA	EASIRLS	QQYFRLPLA	n.d. n.d. n.d. 0.97 n.d. n.d.	0.97	0/18
SLSELYAGWDAANKSIA	ASILMME	QQYHRLPLA	2.08 n.d. 2.08 2.41 2.21 2.19	2.19	1/18 (3.03)
SLKTMPGEGPQEYSSIA	HAELRTP	QQYYRLPLM	0.90 0.43 0.54 0.50 0.71 0.86	0.66	3/18 (2.97)
KIQSHLSQDFAIWNNIA	DREQSAE	QQYHQLPLV	1.16 1.11 1.69 0.99 0.72 1.16	1.14	1/18 (3.92)
KINGYTLQPNMDHNNVA	HGTMKEA	QQYARIPLM	0.44 0.37 0.16 0.07 0.16 0.32	0.25	2/18 (3.25)
KIGHQMVGNWKTHNNIA	QGDTRGS	QSYDRLPLS	1.23 1.34 1.08 1.05 1.09 1.41	1.20	2/18 (2.26)
KLSMEPAWLTGQMDSIA	HVEIRWA	QQYHKLPLI	n.d. n.d. n.d. n.d. n.d. n.d.	n.d.	0/18
MINMEVGIEDMKWQAVA	SAHVRAF	QQYGRLPFS	n.d. 1.31 0.58 0.75 1.30 1.51	1.09	0/18
KLSLVLGVSKQSEKNIA	NSRLKVA	QQYDRLPLT	0.48 n.d. 0.66 2.00 2.81 0.61	1.31	0/18
NLKEMEGTNQTKHGNIA	SVDQRMT	QQYFRLPLA	0.48 0.88 0.41 0.70 0.54 0.64	0.61	0/18
TLMHHQDRQDEWKKSIA	NAIIRER	QQYSRLPLA	1.09 0.73 0.98 0.83 0.76 0.97	0.89	0/18
QFSNTNMQGHAMEHNVA	EATYAEE	QQYARLPLQ	0.72 0.51 0.75 0.57 0.74 0.49	0.63	0/18
VMQMQNDRMQDAAKNIA	DVDMRET	QQYARLPFM	0.83 1.06 0.69 1.08 1.41 1.35	1.07	3/18 (2.03)
RIFYGQERDIAHESSIA	NGMARVK	QQYHRLPLS	0.20 0.29 0.15 0.36 0.50 0.52	0.34	0/18
QMTLSHGMWLNAAQSIA	DKSSVME	QQYAWLPLS	0.83 1.80 n.d. 1.81 2.98 4.16	2.32	0/18
RLTEHQYMRADANHAVA	DASTRND	QQYHRLPLW	-0.32 -0.12 0.02 -0.71 0.26 -0.49	-0.23	0/18
KFNISKEGVTSEGKSIA	GSQTIDE	QQYDRLPLA	2.22 1.26 2.95 1.23 1.99 1.71	1.89	1/18 (2.62)
RIAEQYFEYMHHINNVA	EMSCKAY	QQYAHLPLV	n.d. n.d. 2.83 n.d. n.d. 3.48	3.15	0/18
KLGNQEQMNGMMTQNVA	AMNTVVD	QEYHRLPLI	0.33 0.17 -0.10 0.17 -0.06 0.27	0.13	0/18
HITDLMYNNNEGMQNIA	DKAISVM	QQYFRLPLD	1.36 1.21 1.58 1.24 0.85 1.57	1.30	2/18 (2.90)
NLNVSEDQWPSSKNAIA	QTTCRNL	QQYVHLPLS	0.59 0.93 0.77 0.22 0.89 0.95	0.72	1/18 (1.53)
HMSESEHGDNVGVGNMA	NAHETVA	QQYHHLPLS	0.06 0.03 0.23 -0.14 0.11 0.05	0.06	1/18 (2.50)
KIDENTFHGANRQNNIA	EARTVGA	QQYFRLPII	0.70 0.43 n.d. 1.25 -0.41 n.d.	0.49	0/18
KITLIFSNKGNQRHSVA	NAETLIH	QQYYRLPFL	n.d. n.d. n.d. n.d. n.d. n.d.	n.d.	0/18
KLSLMLNDMDARMWNVA	EGNQTKA	QDYHRLPLH	2.36 2.19 n.d. 1.22 2.08 1.54	1.88	0/18
SLDSDVGYDTHNDKNIA	AETRVDR	QQYAHLPLS	0.49 0.38 0.56 0.74 0.79 0.59	0.59	0/18
RVTIISDPYMENRNNIA	QTSLRAH	QQYQMLPLA	-0.32 -0.38 -0.59 -0.51 -0.61 -0.37	-0.47	0/18
AIEEDNAGEQKNSSNIA	SVDQRED	QQYQRLPLM	0.00 0.10 0.14 -0.05 -0.01 0.15	0.06	3/18 (3.55)
KLGYPSYGEVNGKHNIA	EMDQLTF	QQYSHLPLT	2.41 1.94 2.46 1.54 1.29 3.06	2.12	1/18 (2.54)
RINTALKTVDDHYSNVA	EQRLTSE	QQYFRLPLS	0.96 0.89 1.01 1.02 2.59 1.67	1.36	0/18
NLRMKELGMSYNANNVA	DSENRIK	QQYSRLPLM	0.09 0.01 -0.01 0.03 -0.02 0.05	0.03	1/18 (3.09)
RIDDYPNMLGKNKESIA	EAAVTLT	QQYARLPLS	1.10 0.81 0.48 0.99 0.72 0.84	0.82	1/18 (2.57)
ALELEEMQMMKDINSIA	DTEHKTR	QQYFRLPIS	0.78 0.76 0.68 0.93 0.74 0.76	0.78	0/18
VFMGQWDGVTTTNSAVA	NVDERML	QQYNRLPLM	1.39 0.46 0.25 0.37 0.26 1.17	0.65	0/18
FLAYASDQTGLQKNNIA	QVNLKEN	QQYERLPLA	1.73 1.28 1.85 0.97 1.18 1.71	1.45	1/18 (2.75)